The subject of the experiment is Mus musculus. The experiment can be described thus: Antinociceptive activity in CD-1 mouse assessed as reduction in formalin-stimulated paw flinching at 30 mg/kg, po administered 30 mins prior to formalin challenge measured up to 45 mins. The class given is functional, organism-based.

Calls of active or inactive are those of the source. The rule behind the calls is not given here.

Turning to `CN1C(C)(C)CC(Nc2cc(F)c(S(=O)(=O)Nc3nccs3)cc2Cl)CC1(C)C`, the result was inactive.

Values taken from ChEMBL document CHEMBL4007444, “Development of New Benzenesulfonamides As Potent and Selective Nav1.7 Inhibitors for the Treatment of Pain” (J Med Chem, 2017).
